From patent US20250009730A1 (priority 2021, published 2025)
Like-named read-outs stand apart in the source and are kept apart here.

Sequences of proteins named here, by UniProt entry; tags and fusion partners are left off. Residues count along the entry.
UniProt Q13224, 27-1484: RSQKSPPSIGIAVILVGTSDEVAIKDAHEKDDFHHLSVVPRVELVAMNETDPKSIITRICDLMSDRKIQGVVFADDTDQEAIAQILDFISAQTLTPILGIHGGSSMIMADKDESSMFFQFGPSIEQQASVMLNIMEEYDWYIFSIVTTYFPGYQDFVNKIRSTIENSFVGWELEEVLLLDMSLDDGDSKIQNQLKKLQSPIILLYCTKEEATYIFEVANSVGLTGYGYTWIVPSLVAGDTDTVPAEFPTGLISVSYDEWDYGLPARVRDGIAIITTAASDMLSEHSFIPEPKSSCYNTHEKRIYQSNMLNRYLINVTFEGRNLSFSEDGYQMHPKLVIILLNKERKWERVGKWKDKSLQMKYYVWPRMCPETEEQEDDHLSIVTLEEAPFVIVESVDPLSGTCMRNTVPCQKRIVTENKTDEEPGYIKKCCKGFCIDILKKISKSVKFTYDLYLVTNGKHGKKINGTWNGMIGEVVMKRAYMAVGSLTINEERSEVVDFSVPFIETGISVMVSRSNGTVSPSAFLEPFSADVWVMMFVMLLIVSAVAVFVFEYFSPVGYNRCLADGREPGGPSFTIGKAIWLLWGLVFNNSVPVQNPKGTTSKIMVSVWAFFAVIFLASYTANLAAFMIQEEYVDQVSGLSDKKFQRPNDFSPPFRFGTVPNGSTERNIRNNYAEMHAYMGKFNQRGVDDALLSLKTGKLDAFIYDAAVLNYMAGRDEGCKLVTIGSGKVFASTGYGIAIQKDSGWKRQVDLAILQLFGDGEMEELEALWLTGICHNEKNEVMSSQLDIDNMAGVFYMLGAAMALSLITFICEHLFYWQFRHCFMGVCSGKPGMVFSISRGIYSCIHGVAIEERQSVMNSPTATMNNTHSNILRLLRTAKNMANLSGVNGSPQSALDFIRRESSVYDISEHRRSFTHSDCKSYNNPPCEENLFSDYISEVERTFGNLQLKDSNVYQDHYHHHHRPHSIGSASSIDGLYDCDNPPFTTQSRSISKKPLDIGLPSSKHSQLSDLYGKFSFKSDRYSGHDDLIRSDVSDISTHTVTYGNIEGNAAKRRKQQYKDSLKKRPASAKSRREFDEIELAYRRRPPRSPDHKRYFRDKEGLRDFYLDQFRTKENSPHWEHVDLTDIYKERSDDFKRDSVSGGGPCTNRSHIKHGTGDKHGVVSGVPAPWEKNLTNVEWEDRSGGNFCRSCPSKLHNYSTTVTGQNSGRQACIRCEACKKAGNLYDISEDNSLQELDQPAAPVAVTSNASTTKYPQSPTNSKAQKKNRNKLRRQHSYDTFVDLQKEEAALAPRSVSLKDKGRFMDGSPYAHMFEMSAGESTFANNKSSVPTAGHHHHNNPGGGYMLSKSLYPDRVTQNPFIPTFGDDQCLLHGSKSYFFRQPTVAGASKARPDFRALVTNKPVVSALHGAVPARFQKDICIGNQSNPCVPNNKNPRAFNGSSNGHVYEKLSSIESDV

Biological target: NR1/NR2B ionotropic receptors encoded by the human GRIN1/GRIN2B genes, expressed in HEK293 cells (Homo sapiens, UniProt Q05586+Q13224)
Experiment: Syncropatch automated patch clamp on NR1/NR2B receptors in HEK293 cells, antagonist mode (co-applied with 2 μM glutamate and 50 μM glycine)
Assay type: cell-based
Procedure: The following patch clamp study investigates these effects on NR1/NR2B ionotropic receptors encoded by the human GRIN1/GRIN2B genes, expressed in HEK293 cells. Compounds were evaluated for functional effects on these ion channel receptors.
The assay was carried out using an HTS electrophysiology-based approach with the Syncropatch 384pe automated patch clamp system (Nanion), while using HEK293 cells that have been transfected with human GRIN1/GRIN2B genes to express NR1/NR2B ionotropic receptors
HEK293 cells were transfected with the appropriate ion channel or receptor cDNA(s) encoding NR1 and NR2B. Stable transfectants were selected using the G418 and Zeocin-resistance genes incorporated into the expression plasmid. Selection pressure was maintained with G418 and Zeocin in the culture medium. Cells were cultured in Dulbecco's Modified Eagle Medium/Nutrient Mixture F-12 (D-MEM/F-12) supplemented with 10% fetal bovine serum, 100 U/ml penicillin G sodium, 100 ug/mL streptomycin sulfate, 100 ug/mL Zeocin, 5 ug/mL blasticidin and 500 ug/mL G418.
Before testing, cells in culture dishes were washed twice with DPBS solution. Immediately before testing, the cells were washed in HB-PS containing 10 mM CaCl2 to improve sealing.
Compounds were evaluated in 8-point concentration-response format (4 replicate wells/concentration). The compound formulations were loaded in e.g. a 384-well compound plate and placed in the Syncropatch plate well.
The agonist positive control (L-glutamate) was applied at eight (8) concentrations (0.03-100 μM; n=4, where n=the number of replicates) together with 50 μM glycine. […]
Activation was calculated in two ways based on the following measurements: • 1. peak current amplitudes, and • 2. current amplitude 4-5 seconds after agonist addition.
Data acquisition was performed via the […] and data was analyzed using Microsoft Excel™ (Microsoft™ Corp., Redmond, WA). […]
where Base is the response in the absence of test article (vehicle treatment), Max is the maximum response at high concentrations, xhalf is the EC50, or IC50, the concentration of test compound producing either half-maximal activation or inhibition, and rate is the Hill coefficient. […] No assumptions about the fit parameters were made; the fit parameters were determined by algorithm. Raw reduced data was analyzed using Microsoft Excel Office 365 ProPlus (Microsoft™ Corp., Redmond, WA) and XLfit (Excel addon, Copyright© IDBS 2016). […]
The following patch clamp study investigates these effects on NR1/NR2B ionotropic receptors encoded by the human GRIN1/GRIN2B genes, expressed in HEK293 cells. Compounds were evaluated for functional effects on these ion channel receptors. […]

For Ifenprodil tartrate, the IC50 (peak current amplitude (PCA)) was 1040 nM, the “NR1/NR2B PCA antagonist HillSlope” value (peak current amplitude (PCA)) was 0.89 and the “NR1/NR2B PCA antagonist HillSlope” value (steady state current amplitude (SSC) table) was 0.79. The IC50 (steady state current amplitude (SSC) table, 4th-6th second after agonist, read-out: NR1/NR2B PCA antagonist IC50) was 310 nM.
